Laboratory results reported in patent US9266876B2 (Actelion Pharmaceuticals Ltd., priority 2012, dated 2016).

Chains of the proteins cited; added tags and fusions are not shown. Lines headed by an entry give the natural chain unless they say otherwise; changes in a name come on top.
UniProt P49682: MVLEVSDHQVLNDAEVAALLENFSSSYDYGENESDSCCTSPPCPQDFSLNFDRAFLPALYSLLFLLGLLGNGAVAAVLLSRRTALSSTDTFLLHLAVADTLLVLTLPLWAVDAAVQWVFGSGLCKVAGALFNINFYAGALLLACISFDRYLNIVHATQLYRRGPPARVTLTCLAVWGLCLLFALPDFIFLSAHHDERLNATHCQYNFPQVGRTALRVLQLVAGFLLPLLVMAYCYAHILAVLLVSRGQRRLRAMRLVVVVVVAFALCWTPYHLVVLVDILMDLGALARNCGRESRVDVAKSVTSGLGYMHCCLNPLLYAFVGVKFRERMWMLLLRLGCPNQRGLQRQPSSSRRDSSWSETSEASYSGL

Legend:
[1] = molecular target: human CXCR3A (Homo sapiens (Human), UniProt P49682); assay: FLIPR assay; assay type: cell-based; conditions: CHO-K1 cells expressing the human CXCR3A coupled to Galpha(16); CXCL10 agonist 20 nM; Fluo-4-AM fluorescence; mean values if determined several times
Protocol: The bioactivity of compounds is tested in a fluorometric imaging plate reader (FLIPR: Molecular Devices) using engineered CHO-K1 cells expressing the human CXCR3A coupled to a G protein (Galpha(16)). Cells are plated the day prior to bioassay in F12 medium supplemented with 10% FBS and G418 and hygromycin antibiotics to maintain recombinant selection. At the day of bioassay, cells are washed and dye loaded for one hour with Fluo-4-AM (Invitrogen) in Hanks Balanced Salt Solution (Invitrogen), buffered with 20 mM Hepes at pH 7.4 and sodium bicarbonate (0.015%), containing 5 mM probenecid. […] Cells are washed free of excess dye and 60 microliter of wash buffer is added. Stock solutions of test compounds are made up at a concentration of 10 mM in DMSO, and serially diluted in dilution buffer to concentrations required for inhibition dose response curves. After a 10 minute incubation period at 37° C., 10 microliters of each compound dilution are transferred from a compound plate to the plate containing the recombinant cells in the FLIPR instrument according to the manufacturer's instructions. Following basal readings, 10 microliter CXCL10 agonist at a concentration of 20 nM (from Peprotech) is added, again using the FLIPR instrument. Changes in fluorescence are monitored before and after addition of the test compounds. […]

[2] = molecular target: CXCR3 (Homo sapiens (Human), UniProt P49682); assay: Receptor internalization assay; assay type: cell-based; conditions: human whole blood; final CXCL10 concentration 9 nM; 30 min 37° C.; CXCR3 cell surface expression on CD3 positive cells, flow cytometer
Protocol: B): Receptor Internalization Assay:
Stock solutions of test compounds are made up at a concentration of 10 mM in DMSO, and serially diluted in PBS containing 0.5% BSA to concentrations required for inhibition dose response curves. Diluted compounds are then mixed with an equal volume of CXCL10 (Peprotech) diluted in PBS. Anticoagulated venous human whole blood is added to the mixture, which is then incubated in a CO2 incubator at 37° C. to allow for ligand mediated receptor internalization (final CXCL10 concentration is 9 nM). After 30′, the blood is mixed with fluorescently labeled CXCR3 and CD3 specific antibodies (Becton Dickinson) and incubated on ice for 10 minutes. Samples are then mixed with BD FACS Lysing Solution (Becton Dickinson) in order to eliminate red blood cells. After washing the cells with PBS containing 0.5% BSA, the samples are then analyzed in a flow cytometer (FACS Canto II, Becton Dickinson). For data analysis using FACSDiva software (Becton Dickinson), the mean fluorescence corresponding to CXCR3 cell surface expression was determined on CD3 positive cells. The program GraphPad Prism is used to fit the data to a single site dose response curve and to calculate IC50 values.

1-{(R)-4-[4-(1H-Benzoimidazol-2-yl)-2-trifluoromethyl-thiazol-5-yl]-2-methyl-piperazin-1-yl}-2-(3-phenyl-pyrazol-1-yl)-ethanone [Example 177]
IC50 [1]: 0.003 µM
IC50 [2]: 7.52 µM
